Results as given in paper PMC11870037 (Molecules, 2024).

Chains of the proteins cited; added tags and fusions are not shown. Residues count along the entry.
UniProt Q63380, 1-617: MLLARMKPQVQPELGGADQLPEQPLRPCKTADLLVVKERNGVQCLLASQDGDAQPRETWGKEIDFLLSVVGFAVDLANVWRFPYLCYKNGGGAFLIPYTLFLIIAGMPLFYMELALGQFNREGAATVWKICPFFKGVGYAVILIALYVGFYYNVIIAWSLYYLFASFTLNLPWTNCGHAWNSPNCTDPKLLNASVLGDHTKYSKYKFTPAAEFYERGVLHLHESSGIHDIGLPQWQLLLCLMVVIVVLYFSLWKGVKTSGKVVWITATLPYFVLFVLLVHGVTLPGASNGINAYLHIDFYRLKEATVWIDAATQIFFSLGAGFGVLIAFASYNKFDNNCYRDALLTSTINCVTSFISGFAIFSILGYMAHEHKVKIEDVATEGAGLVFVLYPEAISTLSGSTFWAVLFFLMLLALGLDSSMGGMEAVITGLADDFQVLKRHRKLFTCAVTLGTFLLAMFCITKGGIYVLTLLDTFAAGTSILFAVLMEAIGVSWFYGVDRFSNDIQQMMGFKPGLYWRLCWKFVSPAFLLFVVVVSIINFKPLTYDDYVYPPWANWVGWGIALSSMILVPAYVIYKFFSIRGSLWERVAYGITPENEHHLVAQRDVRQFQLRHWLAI

Target: NET (Rattus norvegicus, UniProt Q63380)
Assay: Monoamine uptake transporter assay, [3H]NE uptake by NET
Assay type: biochemical
Details: antagonist assay

SMILES: CNCCC(Oc1ccccc1OC)c1ccccc1 (stereo not shown) [Nisoxetine, reference compound]
- IC50: 0.0374 µM
